# This is a selection; strong and weak results do not stand in their true shares. Activity calls are given as the source filed them. Cut-off read from the data, not from the text of the source: active = activation above about 4.9%; inactive = the rest.
# Sequences of proteins named here, by UniProt entry; tags and fusion partners are left off. A change or cut given only in a name is not applied to a line headed by its entry.
# UniProt Q8TDV0: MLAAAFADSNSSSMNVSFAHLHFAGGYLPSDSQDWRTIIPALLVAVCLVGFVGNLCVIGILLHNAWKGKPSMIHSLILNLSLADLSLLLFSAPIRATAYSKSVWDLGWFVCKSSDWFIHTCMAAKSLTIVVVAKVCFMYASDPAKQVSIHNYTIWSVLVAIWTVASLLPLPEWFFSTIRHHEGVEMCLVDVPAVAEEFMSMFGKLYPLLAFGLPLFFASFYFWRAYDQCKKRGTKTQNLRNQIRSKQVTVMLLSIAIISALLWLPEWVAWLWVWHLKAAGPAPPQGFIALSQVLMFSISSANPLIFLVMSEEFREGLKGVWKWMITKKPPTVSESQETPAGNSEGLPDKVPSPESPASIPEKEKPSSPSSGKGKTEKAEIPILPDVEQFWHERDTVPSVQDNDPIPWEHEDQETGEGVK
# Molecular target: G-protein coupled receptor 151 (Homo sapiens) (UniProt Q8TDV0)
# Test: activators of human GPR151, primary screen, cell-based, PathHunter beta-arrestin, luminescence (AID 1508602);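 note: 0% = median of compound wells and 100% = cells with positive control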
# Details: PathHunter beta-arrestin GPR151 cells, at 11.2 µM, active compounds read high
row,Structure (SMILES),activation
1,CN1C(=O)C2C(NC(=NCCN3CCOCC3)N2C)N(C)C1=O (stereo unspecified),inactive: -1.07%
2,C/C(=N\Nc1ccc([N+](=O)[O-])cc1[N+](=O)[O-])c1cccc([N+](=O)[O-])c1,inactive: 0.147%
3,Cc1c(Nc2ccc([N+](=O)[O-])cc2[N+](=O)[O-])cccc1[N+](=O)[O-],inactive: -1.34%
4,CC(C)NC(=O)N(Cc1ccco1)C1CCN(CCc2ccccn2)CC1,inactive: 0.688%
5,Cc1cc(NP2(=O)C=C(c3ccccc3)OC(c3ccccc3)=C2)n[nH]1,inactive: 0.217%
6,CCOP(=S)(OCC)c1cccc(C(=O)O)c1,inactive: -0.263%
7,O=[N+]([O-])c1cc([N+](=O)[O-])c(SCCNc2ccccc2)c([N+](=O)[O-])c1,inactive: -0.518%
8,Cn1c(SCC(=O)c2ccccc2OC(F)F)nc2ccccc21,inactive: -0.255%
9,ClCCN1CCn2c1nc1ccccc12,inactive: -0.502%
10,O=[N+]([O-])c1cc([N+](=O)[O-])c2nc(-c3ccc([N+](=O)[O-])o3)[nH]c2c1,inactive: -6.66%
11,O=C(COC(=O)C(O)(c1ccccc1)c1ccccc1)NCc1ccc2c(c1)OCO2,inactive: 0.124%
12,CCOP(=O)(NNc1ccccc1)OCC,inactive: -1.4%
13,CCOc1ccc(NC(=O)c2cc([N+](=O)[O-])cc([N+](=O)[O-])c2)c([N+](=O)[O-])c1,inactive: 0.249%
14,ClC(Cl)(Cl)C1=NP2(=NC(c3ccccc3)=N1)OCCCO2,inactive: 0.466%
15,CCN/N=C/c1c([N+](=O)[O-])cc([N+](=O)[O-])cc1[N+](=O)[O-],inactive: 0.365%
16,Nc1c([N+](=O)[O-])cc(C(=O)c2cc([N+](=O)[O-])c(N)c([N+](=O)[O-])c2)cc1[N+](=O)[O-],inactive: -0.0348%
17,CC(=O)N(Cc1ccco1)C1CCN(CCc2cccs2)CC1,inactive: 2.22%
18,O=[N+]([O-])c1cc([N+](=O)[O-])c(CCN2CCOCC2)c([N+](=O)[O-])c1,inactive: -2.18%
19,CN(C(=O)COC(=O)C(O)(c1ccccc1)c1ccccc1)c1ccccc1,inactive: -0.909%

row,Structure (SMILES),activation
1,O=[N+]([O-])c1ccc(Oc2ccccc2[N+](=O)[O-])c([N+](=O)[O-])c1,inactive: -1.1%
2,COc1ccc(NC2=NCC(CBr)S2)cc1 (stereo unspecified),inactive: 0.722%
3,CCOP(=O)(OCC)C(=O)c1ccccc1Cl,inactive: 0.129%
4,O=C(Nc1ccccc1[N+](=O)[O-])c1ccc([N+](=O)[O-])cc1[N+](=O)[O-],inactive: -0.596%
5,O=[N+]([O-])c1cc([N+](=O)[O-])c(OCC(O)C[n+]2ccccc2)c([N+](=O)[O-])c1 (stereo unspecified),inactive: -0.234%
6,CCOP(=Nc1nc2ccccc2n2nnnc12)(OCC)OCC,inactive: 0.631%
7,Oc1ccccc1CNc1ccccn1,inactive: 0.413%
8,COc1ccc2c(c1)nc(NCCCl)n2C,inactive: -0.411%
9,Nc1cc(N)c2nonc2c1[N+](=O)[O-],inactive: 0.101%
10,O=C(Nc1ccc([N+](=O)[O-])cc1Cl)c1ccc([N+](=O)[O-])cc1[N+](=O)[O-],inactive: 0.973%
11,CC(=O)OC=C1c2cc([N+](=O)[O-])cc([N+](=O)[O-])c2-c2c1cc([N+](=O)[O-])cc2[N+](=O)[O-],inactive: -0.614%
12,N=C1N=C(c2ccc([N+](=O)[O-])cc2)CC(C(Cl)(Cl)Cl)S1 (stereo unspecified),inactive: -0.406%
13,Cc1cc(SC(NC(=O)CC(C)C)C(Cl)(Cl)Cl)ncn1 (stereo unspecified),inactive: -1.13%
14,Nc1c([N+](=O)[O-])cc([N+](=O)[O-])c(Nc2cccc(C(=O)O)c2)c1[N+](=O)[O-],inactive: 0.145%
15,Cc1ccc(N/C(=N/P(=O)(N2CCOCC2)N2CCOCC2)N2CCOCC2)cc1,inactive: -0.617%
16,NC(=O)c1cc([N+](=O)[O-])cc([N+](=O)[O-])c1N,inactive: 1.1%
17,O=C(Nc1ccc(C(F)(F)F)cc1[N+](=O)[O-])c1cc([N+](=O)[O-])cc([N+](=O)[O-])c1,inactive: -0.006%
18,CCOP(=O)(OCC)SCC(=O)NCCC(=O)O,inactive: -0.329%
19,COC(=O)c1ccc(OP2(=S)OCC(C)(C)CO2)cc1,inactive: -0.82%

row,Structure (SMILES),activation
1,CCCCOP(=O)(OCCCC)SC,inactive: -0.213%
2,CCN(CC)C1=NP(=O)(c2ccccc2)NC(c2ccccc2)=C1C#N (stereo unspecified),inactive: -0.582%
3,COc1ccc(CCN2CCC(N(Cc3ccco3)C(=O)NC(C)C)CC2)cc1,inactive: -1.07%
4,CCOC(=O)N1C2CCC1CC(OC(=O)C(O)(c1ccccc1)c1ccccc1)C2 (stereo unspecified),inactive: -0.297%
5,Cc1cc(C)nc(SC(NC(=O)C(C)C)C(Cl)(Cl)Cl)n1 (stereo unspecified),inactive: -0.0006%
6,CCOc1ccc(/C=C2/C(=O)NC(=O)N(Cc3ccco3)C2=O)cc1,inactive: -0.247%
7,CC(=O)N(Cc1cccnc1)C1CCN(CCc2ccccn2)CC1,inactive: 2.84%
8,ICC1CN=C(Nc2ncccn2)S1 (stereo unspecified),inactive: -0.167%
9,CCCOP(=O)(OCCC)O/C(C)=C/SC#N,inactive: -0.585%
10,CCOP(=O)(OCC)SCC(=O)NCC(=O)O,inactive: 1.01%
11,CCOP(=S)(OCC)C1(C#N)CCCC1,inactive: 0.668%
12,O=[N+]([O-])c1ccc(N/N=C/c2cc3c(cc2[N+](=O)[O-])OCO3)c([N+](=O)[O-])c1,inactive: 0.567%
13,OP1(c2ccccc2)=NC(c2ccccc2)=NC(C(Cl)(Cl)Cl)=N1 (stereo unspecified),inactive: -0.229%
14,O=C(Oc1ccc([N+](=O)[O-])cc1[N+](=O)[O-])c1ccc(Cl)cc1[N+](=O)[O-],inactive: -1.94%
15,O=C(c1cccnc1)N(Cc1ccco1)C1CCN(CCc2cccs2)CC1,inactive: 3.87%
16,Cc1cccc(NP(=O)(c2ccccc2)c2ccccc2)n1,inactive: -0.703%
17,COP(=O)(OC)C(NC(=O)c1ccc(C)cc1)=C(Cl)Cl,inactive: 0.899%
18,COc1ccc(CCN2CCC(N(Cc3cccnc3)C(C)=O)CC2)cc1,inactive: 0.478%
